Assays:
[1] = system: IP6K; settings: indirect, through interaction with PI3K (LY 294002), PI4K (PAO) or PLC (U73122); cited from earlier work
[2] = system: human macrophages; settings: macrophages treated with GM-CSF, all tested concentrations, 24 hours of incubation

In the case of O=[As]c1ccccc1 (stereo not drawn), the IP6K activity [1] is given as “decreases IP6K activity”.

In the case of “1-[6-((17β-3-Methoxyestra-1,3,5(10)-trien-17-yl)amino)hexyl]-1H-pyrrole-2,5-dione”, the IP6K activity [1] is listed as “decreases IP6K activity”.

With “(1R*,2S*)-4-[2-Chloro-6-(methylamino)-9H-purin-9-yl]-2-(phosphonooxy)bicyclo[3.1.0]hexane-1-methanol dihydrogen phosphate ester diammonium salt” the “metabolic activity of macrophages” value [2] was “None of the concentrations of MRS2279 and gallein significantly altered”.

Source: patent publication US20260224597A1, “METHODS FOR ACTIVATING IMMUNE CELLS TO KILL BACTERIA” (The Texas A&M University System, priority 2023, published 2026)
